In patent US20170184612A1, “USE OF LEUKOCYTES AND NOVEL BIOMARKERS IN THE DIAGNOSIS, CONFIRMATION, AND TREATMENT OF A NEUROLOGICAL DISORDER” (The Trustees of Columbia University in the City of New York, priority 2014, published 2017):

What was measured:
[1] = target: HLA class II allele DQB1*03:02 (human); assay: in vitro MHC class II-peptide binding assay
[2] = target: HLA class II allele DPB1*03:01 (human); assay: in vitro MHC class II-peptide binding assay

| IC50 [1] [µM] | IC50 [2] [µM] | Substance |
| --- | --- | --- |
| 21.7 | – | α-syn epitope 31…45 (SEQ ID NO: 59) (peptide) |
| 9.25 | 4.11 | α-syn epitope 32…46 (SEQ ID NO: 34) (peptide) |
